Source: PubChem BioAssay AID588856 (National Center for Advancing Translational Sciences (NCATS), 2011)
The list shows a part of the results, in another mix than the full data. The source made the active and inactive calls. Calls follow the shape of the dose curve; as a rule, active = well fitted cell-killing curve with a large enough effect; inactive = no such curve, though single readings can be large or run the other way. A call without a number means that no potency is given here.

experiment: qHTS for Inhibitors of TGF-b: Cytotox Counterscreen; settings: HepG2 CAGA-GFP viability, ATP luminescence, 18 h; series mostly up to 46.1 µM
Procedure, shortened: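 CellTiter-Glo luminescence gave cytotoxicity after 18 hours at 37 degrees C. The cells were HepG2 CAGA-GFP in 1% FBS DMEM, stimulated with 500 pg/mL TGF-beta after compound addition. %Activity was normalised to no-cell wells (complete cell-killing) and DMSO (no toxicity), and curves were fitted and classified.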

| SMILES | Potency |
| --- | --- |
| COc1ccccc1OP(C)(=O)Nc1ccccc1 (stereo not drawn) | inactive |
| CP(=O)(Nc1ccccc1Br)Oc1ccccc1 (stereo not drawn) | inactive |
| CCOP(C)(=S)SCC(=O)NC(C)C(=O)O (stereo not drawn) | inactive |
| CCOC(=O)c1ccc(NP(C)(=O)Oc2ccc(OC)cc2)cc1 (stereo not drawn) | inactive |
| O=[N+]([O-])c1cc([N+](=O)[O-])c(O)c([N+](=O)[O-])c1.c1ccc(Oc2ccncc2)cc1 | inactive |
| CP(=O)(Nc1ccccn1)Oc1ccc(Cl)cc1 (stereo not drawn) | inactive |
| Cc1cccc(C)c1OP(C)(=O)Nc1ccc(SC(F)(F)F)cc1 (stereo not drawn) | inactive |
| CP(=O)(Nc1ccc(SC(F)(F)F)cc1)Oc1ccc(Cl)cc1 (stereo not drawn) | inactive |
| CP(=O)(Oc1ccccc1)OC(c1ccccc1)C(F)(F)F (stereo not drawn) | inactive |
| CCc1ccc(OP(C)(=O)N2CCN(c3ccc([N+](=O)[O-])cc3)CC2)cc1 (stereo not drawn) | inactive |
| CP(=O)(NC(=O)Nc1ccccc1)Oc1ccccc1 (stereo not drawn) | inactive |
| Cc1cc(C)cc(OP(C)(=O)Nc2ccc(SC(F)(F)F)cc2)c1 (stereo not drawn) | inactive |
| CCN(CC)CCCOC(=O)C(O)(c1ccccc1)c1ccccc1 | inactive |
| CCOC(=O)c1ccc(NP(C)(=O)Oc2ccccc2)cc1 (stereo not drawn) | inactive |
| COc1ccccc1OP(C)(=O)Nc1ccc(C)cc1 (stereo not drawn) | inactive |
| Cc1ccc(NP(C)(=O)Oc2ccccc2)c(C)c1 (stereo not drawn) | inactive |
| COc1ccccc1OP(C)(=O)Nc1cc(Cl)ccc1C (stereo not drawn) | inactive |
| COc1ccc(OP(C)(=O)Nc2cccc(F)c2)cc1 (stereo not drawn) | inactive |
| Cc1cc(C)cc(OP(C)(N)=O)c1 (stereo not drawn) | inactive |
| O=[N+]([O-])c1cc([N+](=O)[O-])c(Nc2cccnc2)c([N+](=O)[O-])c1 | inactive |
| CC(C)(C)c1ccc(OP(C)(=O)Nc2ccc(SC(F)(F)F)cc2)cc1 (stereo not drawn) | inactive |
| Cc1cccc(C)c1OP(C)(N)=O (stereo not drawn) | inactive |
| O=[N+]([O-])c1ccc2c(c1)C=Nc1ccccc1O2 | inactive |
